The values that follow are results of earlier work, collected in patent US20060135612A1, “Method of ameliorating or abrogating the effects of a neurodegenerative disorder, such as amyotrophic lateral sclerosis (ALS), by using a HDAC inhibiting agent” (U.S. Department of Veterans Affairs, priority 2004, published 2006).

In this data set the test system is humans with ALS. The note with it: ALS patients, References 2 and 3; cited from earlier work.

For the compound `Nc1nc2ccc(OC(F)(F)F)cc2s1` [riluzole], the prolongation of survival is on record as 2-3 month.
